Results: ChEMBL document CHEMBL1275590, “Novel arylimidamides for treatment of visceral leishmaniasis” (Antimicrob Agents Chemother, 2010)

Columns and labels:
Details in all cases: in vivo
[1] = Clearance in Swiss Webster mouse at 4.9 mg/kg, iv by HPLC-MS/MS analysis; format: ADME, organism-based; design: dose 4.9 mg/kg, route intravenous
[2] = Half life in Swiss Webster mouse at 1 mg/kg, iv by HPLC-MS/MS analysis; format: ADME, organism-based; design: dose 1 mg/kg, route intravenous
Summary of the method: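 Male Swiss Webster mice, n = 3 per time point. For i.v., the compound was dissolved in sterile water, diluted 1:1 with 2× saline, and given as a tail-vein bolus over ~10–20 s. For p.o., it was given by gavage in sterile water. Dose volume was 5 ml/kg. Terminal plasma was taken from 5 min to 72 h and measured by HPLC-MS/MS (calibration 2.5–10,000 nM). Parameters came from noncompartmental analysis.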

Mus musculus = experiment: AUC (0 to infinity) in Swiss Webster mouse at 70 mg/kg, po by HPLC-MS/MS analysis; format: ADME, organism-based, Plasma; design: time infinity, dose 70 mg/kg, route oral

SMILES | clearance [1] | half-life [2] | AUC (Mus musculus)
CCOc1cc(NC(=N)c2ccccn2)ccc1-c1ccc(-c2ccc(NC(=N)c3ccccn3)cc2OCC)o1 | 28 mL/min/kg | – | –
CC(C)Oc1cc(NC(=N)c2ccccn2)ccc1-c1ccc(-c2ccc(NC(=N)c3ccccn3)cc2OC(C)C)o1 | – | 22 h | 13.2 µM·h
